Drawing on ChEMBL document CHEMBL1131886 (Bioorg Med Chem Lett, 1999), this text covers Ki for one molecule.

By UniProt entry, the sequences of proteins in these tests, tags left out.
UniProt P31652, whole entry: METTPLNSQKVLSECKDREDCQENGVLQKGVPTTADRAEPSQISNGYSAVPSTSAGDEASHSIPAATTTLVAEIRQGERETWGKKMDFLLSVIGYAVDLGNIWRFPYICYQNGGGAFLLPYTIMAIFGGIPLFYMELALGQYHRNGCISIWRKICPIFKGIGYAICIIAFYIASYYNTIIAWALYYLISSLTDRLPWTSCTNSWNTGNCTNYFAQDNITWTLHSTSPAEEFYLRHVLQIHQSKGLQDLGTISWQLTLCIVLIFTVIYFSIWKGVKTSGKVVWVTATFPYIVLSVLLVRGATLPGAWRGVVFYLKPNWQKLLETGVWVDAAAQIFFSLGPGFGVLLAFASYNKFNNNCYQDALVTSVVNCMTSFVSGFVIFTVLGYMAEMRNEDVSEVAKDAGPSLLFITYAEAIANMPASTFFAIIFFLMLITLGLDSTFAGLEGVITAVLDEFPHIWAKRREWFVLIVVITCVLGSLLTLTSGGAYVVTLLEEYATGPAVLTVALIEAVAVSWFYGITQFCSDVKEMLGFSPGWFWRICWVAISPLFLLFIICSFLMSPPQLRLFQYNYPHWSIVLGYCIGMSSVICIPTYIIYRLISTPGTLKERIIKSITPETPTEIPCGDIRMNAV

pKi: −log10 of the molar value.

This assay deals with Sodium-dependent serotonin transporter (Rattus norvegicus, UniProt P31652). The assay is described as follows: Displacement of specific [3H]- citalopram binding to 5-HT uptake site in rat whole cortex.

`CC(C)NCC(O)COc1cccc2[nH]ccc12` (stereo unspecified) [PINDOLOL]: the negative-log Ki (pKi) is less than 5.15.

In general, pKi refers to −log10 of the Ki, conventionally taken in molar units. High values mean a small Ki, low ones a large Ki.
